Measured values: EP4419152B1, “USE OF A COMPOSITION COMPRISING PERFORMIC ACID AS BIOCIDE IN INDUSTRIAL COOLING SYSTEMS” (dated 2026)

Assays:
enterococci = experiment: Disinfection effectiveness of peracids, enterococci; conditions: for enterococci; literature data and laboratory tests
E. coli = experiment: Disinfection effectiveness of peracids, E. coli; conditions: for E. coli; literature data and laboratory tests
L. pneumophila = experiment: Viability of L. pneumophila after disinfection with PFA; conditions: contact time 10 minutes
microbial load = experiment: Microbial regrowth test in cooling tower basin water, EasyCult kits; conditions: Example 1b; for microbial load: Figure 3, water of 06/05, diluted 1:100, 48 hours
aerobic microbial loads = experiment: Microbial regrowth test in cooling tower basin water, vials by NACE TM 0194-2004 method; conditions: Example 1c, Figure 5, white diluted 1 to 30, N=8 vials

With `O=COO` the “disinfection effectiveness (rank order of peracids)” value (enterococci) was “PFA > PPA”, the “disinfection effectiveness (rank order of peracids)” value (E. coli) was “PFA > PAA” and the Reduction % (L. pneumophila; 1 mg PFA/L) was 99.8%. The “Bacterial density, cfu/mL Average” value (L. pneumophila; 1 mg PFA/L, detection limit 10 cfu/mL) was 1.3 x 10^2 cfu/mL, the Reduction % (L. pneumophila; 2 mg PFA/L) was 100% and the Reduction % (L. pneumophila; 4 mg PFA/L) was 100%.

In the case of `O=CO`, the microbial load (microbial load; 10ppm of Formic acid) is reported as “at least 10^6 UFC”, the microbial load (microbial load; 50ppm of Formic acid) is reported as “at least 10^6 UFC” and the biocidal effect (microbial load; 10 and 50 mg/L formic acid solution) is reported as “would not seem to perform biocidal effect”. The Positive vials (aerobic microbial loads; 10ppm of Formic acid) was 7/8 and the Positive vials (aerobic microbial loads; 30ppm of Formic acid) was 7/8.
